Laboratory results taken from patent publication US20090186811A1 (published 2009).

Chains of the proteins cited; added tags and fusions are not shown.
UniProt P49146, whole entry: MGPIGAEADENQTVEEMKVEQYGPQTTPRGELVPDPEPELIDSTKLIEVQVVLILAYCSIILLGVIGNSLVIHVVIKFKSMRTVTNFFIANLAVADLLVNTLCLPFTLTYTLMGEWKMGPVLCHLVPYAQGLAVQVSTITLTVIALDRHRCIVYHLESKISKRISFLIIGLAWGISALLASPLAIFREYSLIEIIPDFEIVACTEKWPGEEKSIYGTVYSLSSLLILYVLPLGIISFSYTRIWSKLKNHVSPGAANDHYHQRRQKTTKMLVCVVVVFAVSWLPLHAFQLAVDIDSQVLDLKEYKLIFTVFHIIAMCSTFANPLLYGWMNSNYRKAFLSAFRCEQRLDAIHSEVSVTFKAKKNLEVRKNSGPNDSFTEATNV
UniProt P25929, whole entry: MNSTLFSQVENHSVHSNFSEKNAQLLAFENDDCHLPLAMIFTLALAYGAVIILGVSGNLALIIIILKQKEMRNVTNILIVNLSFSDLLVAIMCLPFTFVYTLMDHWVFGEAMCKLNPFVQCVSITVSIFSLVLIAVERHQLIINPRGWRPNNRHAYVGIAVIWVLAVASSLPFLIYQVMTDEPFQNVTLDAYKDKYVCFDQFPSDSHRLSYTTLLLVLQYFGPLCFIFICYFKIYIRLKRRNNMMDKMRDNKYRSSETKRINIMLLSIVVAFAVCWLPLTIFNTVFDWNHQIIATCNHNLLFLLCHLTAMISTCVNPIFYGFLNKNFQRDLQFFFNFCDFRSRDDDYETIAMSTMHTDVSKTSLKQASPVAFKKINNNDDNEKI

B1: Fluorescein-[Cys2,N-{(Ala-Arg-Arg-Arg-Ala-Ala-Arg-Ala)3}-Lys13,D-Cys27]PYY (peptide)
peptide: not shown
chain: ARRRAARAARRRAARAARRRAARA
modifications: fluorescein (5,6 isomer) on the N-terminus; C-terminus amide-linked to the epsilon amino group of Lys13 of the PYY chain; epsilon amino group of Lys13 joined by an amide bond to the C-terminus of the 24-residue GAG-binding motif; D-Cys at position 27; disulfide bridge Cys2 to D-Cys27; C-terminal amide

Key:
human Y2 receptor = human Y2 receptor (human, UniProt P49146 1-381); assay: cell-based or functional assay
human Y1 receptor = target: T1, human Y1 receptor (human, UniProt P25929 1-384); assay: competition binding, 125I-NPY displaced, COS-7 cells with human Y1
T1 construct: whole, on cells

Row | Binder | EC50 (inositol phosphate turnover) (human Y2 receptor) | IC50 (human Y1 receptor)
1 | B1 | 0.37 nM | –
2 | KKKKKKRHYLNLVTRQRY (C-terminal amide, also called [Lys]6-PYY25-36) [Lys-Lys-Lys-Lys-Lys-Lys-PYY25-36] | 213 nM | 520 nM
